Results as given in ChEMBL document CHEMBL4513216, “Probing the Open Global Health Chemical Diversity Library for Multistage-Active Starting Points for Next-Generation Antimalarials” (ACS Infect Dis, 2020).
Only a part of the results on these compounds is given; other tests are left out.

Tested on: HepG2
Experiment: Toxicity liver stage against HepG2, at 10uM
Type: cell-based
Design: test concentration 10 uM, cell line HepG2-A16-CD81EGFP
Conditions: human, hepg2, 10 µM
Outline: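 Uninfected HepG2-A16-CD81EGFP cells, 3 × 10^3 per well, 1536-well, plated on prespotted compound at 10 μM final, parasite-free screening media added to match infected plates; puromycin 10 μM positive, DMSO 0.5% negative; run in parallel with 48 h PbLuc assay at 37 °C, 5% CO2; viability by CellTiter-Glo luminescence, normalized to controls.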

Structure (SMILES)	INHIBITION
COc1ccc(CN2CCC(Nc3ccc(Br)cc3)CC2)c(OC)c1	2.31%
CCCN1CCC(Nc2ccc(OC)c(OC)c2)CC1	0.124%
Cc1cccc(NC2CCN(Cc3nnc(C4CC4)o3)CC2)c1	-8.37%
COc1cccc(NC2CCNCC2)c1	-3.35%
COc1ccccc1NC1CCN(Cc2nc(C)ccc2O)CC1	0.719%
CC1(C)CN(C2(CNC(=O)c3cnns3)CCCCC2)CCO1	19.5%
COc1cc(NC2CCNCC2)cc(OC)c1	-5.3%
Brc1ccccc1NC1CCNCC1	-2.33%
Fc1ccccc1NC1CCNCC1	-5.6%
Cc1nnc(C(C)N2CCC(Nc3ccccc3C)CC2)o1 (stereo not given)	3.96%
